Data as given in ChEMBL document CHEMBL1140033, “Modulating G-protein coupled receptor/G-protein signal transduction by small molecules suggested by virtual screening” (J Med Chem, 2008).

Chains of the proteins cited; added tags and fusions are not shown.
UniProt P02699, whole entry: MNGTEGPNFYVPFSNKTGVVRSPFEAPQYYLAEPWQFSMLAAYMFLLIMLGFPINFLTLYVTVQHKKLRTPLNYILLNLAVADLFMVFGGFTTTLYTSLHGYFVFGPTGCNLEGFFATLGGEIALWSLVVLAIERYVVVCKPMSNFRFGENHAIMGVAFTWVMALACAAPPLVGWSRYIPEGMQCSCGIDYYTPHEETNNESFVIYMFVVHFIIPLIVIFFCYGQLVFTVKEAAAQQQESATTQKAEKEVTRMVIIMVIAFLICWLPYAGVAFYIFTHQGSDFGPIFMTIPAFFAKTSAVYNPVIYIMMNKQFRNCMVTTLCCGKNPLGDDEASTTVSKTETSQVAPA

What was measured:
Rhodopsin [1] = target: T1, Rhodopsin (Bos taurus, UniProt P02699); assay: Binding affinity to photoactivated rhodopsin in bovine retinal rod outer-segment membranes assessed as induction of extra receptor MII state stabilization by UV/visible difference spectroscopy
Rhodopsin [2] = target: T1, Rhodopsin; assay: Inhibition of bovine retinal rod outer-segment photoactivated rhodopsin-transducer interaction by transducer release assay

C[C@]12CC[C@H]3[C@@H](CCC4=CC(=O)CC[C@@]43C)[C@@H]1CC[C@@H]2C(=O)COS(=O)(=O)c1ccc(Br)cc1
EC50 (Rhodopsin [1]): 45 µM | IC50 (Rhodopsin [2]): 15 µM
